The text below walks through data of patent US11447485B2, “Class of bifunctional compounds with quanternary ammonium salt structure” (Beijing Showby Pharmaceutical Co., Ltd., priority 2016, dated 2022).

Protein sequences, listed by entry. Tags and fused reporters are not part of them. Lines headed by an entry give the natural chain unless they say otherwise; changes in a name come on top.
UniProt P11229: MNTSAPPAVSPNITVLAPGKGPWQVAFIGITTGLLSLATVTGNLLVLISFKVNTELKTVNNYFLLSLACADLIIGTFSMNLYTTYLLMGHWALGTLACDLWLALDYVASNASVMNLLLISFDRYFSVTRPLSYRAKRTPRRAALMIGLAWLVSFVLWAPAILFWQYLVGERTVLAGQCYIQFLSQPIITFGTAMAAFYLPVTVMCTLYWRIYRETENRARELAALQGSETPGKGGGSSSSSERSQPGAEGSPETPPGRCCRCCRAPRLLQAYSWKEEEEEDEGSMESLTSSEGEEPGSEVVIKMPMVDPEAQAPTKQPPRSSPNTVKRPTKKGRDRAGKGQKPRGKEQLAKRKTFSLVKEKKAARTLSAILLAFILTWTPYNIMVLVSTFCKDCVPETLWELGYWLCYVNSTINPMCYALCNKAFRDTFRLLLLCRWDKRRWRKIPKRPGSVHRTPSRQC
UniProt P08172, whole entry: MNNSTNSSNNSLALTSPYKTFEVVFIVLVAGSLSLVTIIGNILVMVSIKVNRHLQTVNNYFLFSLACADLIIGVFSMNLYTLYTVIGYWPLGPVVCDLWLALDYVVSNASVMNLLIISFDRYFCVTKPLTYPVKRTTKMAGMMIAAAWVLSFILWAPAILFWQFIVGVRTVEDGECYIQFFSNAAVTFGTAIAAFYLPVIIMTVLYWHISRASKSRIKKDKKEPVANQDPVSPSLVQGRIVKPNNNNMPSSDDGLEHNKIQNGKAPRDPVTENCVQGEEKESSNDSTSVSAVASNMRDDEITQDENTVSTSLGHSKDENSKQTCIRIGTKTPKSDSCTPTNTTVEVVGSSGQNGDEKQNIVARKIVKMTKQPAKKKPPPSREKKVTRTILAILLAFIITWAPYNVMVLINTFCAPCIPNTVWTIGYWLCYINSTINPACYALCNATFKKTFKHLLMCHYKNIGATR
UniProt P20309, whole entry: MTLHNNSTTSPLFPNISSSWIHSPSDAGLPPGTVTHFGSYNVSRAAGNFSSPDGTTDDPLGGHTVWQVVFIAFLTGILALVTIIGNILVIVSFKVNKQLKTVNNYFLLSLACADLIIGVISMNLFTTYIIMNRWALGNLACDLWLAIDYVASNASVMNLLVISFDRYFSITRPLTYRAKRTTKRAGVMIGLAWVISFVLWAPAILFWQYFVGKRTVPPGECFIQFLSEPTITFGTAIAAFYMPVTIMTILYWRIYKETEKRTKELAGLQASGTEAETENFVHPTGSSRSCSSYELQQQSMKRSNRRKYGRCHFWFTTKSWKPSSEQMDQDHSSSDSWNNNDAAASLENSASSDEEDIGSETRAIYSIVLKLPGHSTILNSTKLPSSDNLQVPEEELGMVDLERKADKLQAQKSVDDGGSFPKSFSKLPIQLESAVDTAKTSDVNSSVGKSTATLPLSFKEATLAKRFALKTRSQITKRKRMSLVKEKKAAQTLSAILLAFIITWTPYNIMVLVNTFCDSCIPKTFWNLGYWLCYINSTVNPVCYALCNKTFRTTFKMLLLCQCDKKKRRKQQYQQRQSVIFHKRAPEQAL

For orientation: Ki means the dissociation constant of the complex between target and ligand, obtained from inhibition or displacement.

Holding throughout (experiment): biochemical
What all share (format): binding

For assay [1], the target named is human recombinant M1 receptor (Homo sapiens, UniProt P11229).
Assay [2] concerns the target human recombinant M2 receptor (Homo sapiens, UniProt P08172).
In assay [3] the target is human recombinant M3 receptor (Homo sapiens, UniProt P20309).

For the compound `CC(C)[N+]1(C)[C@@H]2CC[C@H]1C[C@@H](OC(=O)C(CO)c1ccccc1)C2` (stereo partly drawn) [Ipratropium bromide, ipratropium bromide, reference compound], the figures for the inhibition constant (Ki) in assay [1], in assay [2] and in assay [3] were 1.41 ± 0.45 nM, 0.81 ± 0.12 nM and 0.692 ± 0.21 nM, respectively.
